Source: patent publication US20130252331A1, “COMPOSITIONS AND METHODS FOR MODULATING METABOLISM” (priority 2010, published 2013)

Tested on: C57B/6 male mice
Test: Body weight of C57B/6 mice on high fat diet
Format: in vivo, mouse
Conditions: 50 mg/kg once daily intraperitoneal, p<0.05
Procedure: 8 week old C57B/6 male mice were started on a high fat diet containing 60% kcal fat. […] Body weight was measured every week.

SMILES: Cc1sc2c(c1C)C(c1ccc(Cl)cc1)=N[C@@H](CC(=O)OC(C)(C)C)c1nnc(C)n1-2 (racemic) [JQ1, (S)-tert-Butyl 2-(4-(4-chlorophenyl)-2,3,9-trimethyl-6H-thieno[3,2-f][1,2,4]triazolo[4,3-a][1,4]diazepin-6-yl)acetate]
- time on treatment after which weight curves separate in a statistically significant way: 3 weeks
